Here are results for one molecule from patent US11401286B2 (Tetra Discovery Partners, LLC, priority 2012, dated 2022).

The term IC50 denotes the point on the concentration scale where inhibition reaches its midpoint.

Molecules are shown by their SMILES.

For test [1], the system named is human PDE4D7 containing UCR1 activating mutation S54D (PDE4D7*). The following applies: ratio PDE4B1*/PDE4D7*.
Test [2] has as its target human PDE4D7 containing UCR1 activating mutation S54D (PDE4D7*) (Homo sapiens (Human), UniProt Q08499, S129D). Nature of the test: biochemical.

In the case of `CCc1nc(Nc2ccc(C(C)(C)C(=O)O)cc2)nc(-c2cccc(Cl)c2)n1` [Example 60, 2-(4-(4-(3-chlorophenyl)-6-ethyl-1,3,5-triazin-2-ylamino)phenyl)-2-methylpropanoic], the “Selectivity PDE4 isoforms B*/D*” value in test [1] was “− (− indicates a selectivity of ≤10×)”. In addition, the IC50 in test [2] is < 1 µM.
